# Measured affinities in a library of Ab-14 heavy chain variants

Data: MIT Lincoln Laboratory AlphaSeq set, Li et al. 2023, doi:10.1038/s41467-023-39022-2, as distributed in FLAb.

Target: peptide PDVDLGDISGINAS, taken from heptad repeat 2 (HR2) of SARS-CoV-2 spike.

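The parent was found by panning a naive human phage display library on the peptide. These sequences belong to a second round, designed from the earlier measurements on random variants of the parent. Group labels follow the data file (Ctrl: baseline library sampled from a position-specific scoring matrix, with some repeated check sequences; Rand: our label for a block that the file lists under HC and that is probably the random mutants of the ten best first-round binders; En: ensemble of fine-tuned language models; GP: Gaussian process model; GPLM: also part of the Gaussian process libraries; HC: hill climbing; Gen: genetic algorithm; Gibbs: Gibbs sampling; a sequence that several methods proposed may carry one label only). The scFvs were displayed on barcoded MATa yeast, the peptide on MATalpha yeast. The frequency of each diploid, read from paired DNA barcodes, reflects how well the two displayed proteins bind. Read counts were normalised to the haploid input and turned into Kd by a linear fit to BCL2-family pairs of known affinity, for each replicate. Each pool was mated in six replicate cultures.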

Ab-14 is the parent antibody, in scFv form: VH, then a 15-residue (Gly4Ser)3 linker, then VL. The light chain is unchanged in all variants.
VH: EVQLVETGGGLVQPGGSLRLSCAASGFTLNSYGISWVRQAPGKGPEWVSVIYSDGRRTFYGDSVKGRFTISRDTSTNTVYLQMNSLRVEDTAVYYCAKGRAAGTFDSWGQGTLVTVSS
VL: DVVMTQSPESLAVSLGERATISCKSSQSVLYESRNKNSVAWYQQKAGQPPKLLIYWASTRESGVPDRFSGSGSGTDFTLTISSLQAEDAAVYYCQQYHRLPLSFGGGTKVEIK

Variants are written as CDR1, CDR2 and CDR3 of the heavy chain (limits as in the source). Parent: GFTLNSYGIS, VIYSDGRRTFYGDSVK, GRAAGTFDS.
Values are log10 of the apparent Kd in nM; lower means stronger binding.
The mean shown is taken over the replicates in which the pair was detected.
"nd" means that the variant was in the library but no mating with the target was seen in any replicate; the authors take this as a sign of poor binding, and no number exists.
Values of this round are not directly comparable with the first-round values of the same sequences.

Read-out 1.34 (6 of 6 replicates), from GFELNSYGIS / VIYADGRRTFYGDNVK / GRAAGTFDS [GP_Gen].
Read-out -0.24 (6 of 6 replicates), from GFDLNEYGIS / VIYADGKRTAYADNVK / GEVAGTFDT [En_Gen].
Read-out 0.61 (6 of 6 replicates), from GFTLNDYGIS / VIYSDGRRTFYGDSVR / GRAAGTFDS [Ctrl].
Read-out -0.80 (6 of 6 replicates), from GFDLNEYGIS / VIYADGQRTAYADDVK / GQVAGTFDV [En_Gen].
Read-out -0.52 (6 of 6 replicates), from GFDLNEYGIS / VIYADGRRTFYTDSVK / GNFAGTFDQ [En_HC].
Read-out 0.50 (6 of 6 replicates), from GFTLNSYGIS / VIYSDGRRTFYTDSVK / GELAGTFDS [Ctrl].
Read-out -0.62 (6 of 6 replicates), from GFDLNEYGIS / VIYADGKRTAYIDSVK / GQVAGTFDV [En_Gen].
Read-out 1.17 (6 of 6 replicates), from GFTLNDYGIS / VIYSDGRRTAYGDSVK / GRAAGTFHM [Ctrl].
Read-out 0.20 (6 of 6 replicates), from GFSLNEYGIS / VIYSDGRRTFYGESVK / GRAAGTFDS [GPLM_Gen].
Read-out 0.76 (6 of 6 replicates), from GFTLNEYGIS / VIYSDGRRTFYGDSVK / GRFAGTFDR [GP_HC].
Read-out -0.33 (6 of 6 replicates), from GFDLNEYGIS / VIYADGRRTQYIDSVK / GETAGTFDV [En_HC].
Read-out -0.59 (6 of 6 replicates), from GFDLNEYGIS / VIYADGRRTFYADSVK / GNVAGTFDV [En_Gen].
Read-out -0.43 (6 of 6 replicates), from GFDLNEYGIS / VIYADGQRTYYADSVK / GEVAGTFDQ [En_Gen].
Read-out -0.91 (6 of 6 replicates), from GFDLNEYGIS / VIYADGRRTFYADSVK / GSEAGTFNL [En_HC].
Read-out 0.48 (4 of 6 replicates), from GFSLNSYGIS / VIYSDGRRTFYKDSVK / GRLAGTFDS [GP_Gen].
Read-out -0.29 (6 of 6 replicates), from GFDLNEYGIS / VIYADGRRTFYADSVK / GEVAGTFVN [En_HC].
Read-out 0.43 (5 of 6 replicates), from GFYLNDYGIS / VIYSDGRRTFYGDSVK / GTAAGTFDS [GP_HC].
Read-out -0.27 (6 of 6 replicates), from GFDLNSYGIS / VIYSDGRRTFYKDSVK / GKEAGTFDS [GP_Gen].
Read-out nd (0 of 6 replicates), from GFNLNKYGSS / VIYSDGRRTFYGDSVK / GRAMGTFDS [Ctrl].
Read-out -0.74 (6 of 6 replicates), from GFDLNEYGIS / VIYADGRRTFYADSVK / GSEAGTFDI [En_HC].
Read-out 0.77 (6 of 6 replicates), from GFQLNEYGIS / VIYSDGRRTFYGDQVK / GQAAGTFDK [GP_Gibbs].
Read-out 2.48 (2 of 6 replicates), from GFTLNSYGIS / VIYSDGRRTFYEDAVK / GQAAGTFDS [Ctrl].
Read-out 2.37 (1 of 6 replicates), from GFDINEYGIS / VIYADGMRTAYVQQVK / GQNLGDVEV [En_Gibbs].
Read-out -0.45 (6 of 6 replicates), from GFDLNEYGIS / VIYADGMRSYYADSVK / GNVAGTFDI [En_Gen].
Read-out 0.00 (6 of 6 replicates), from GFDLNSYGIS / VIYSDGMRTFYGDSVK / GRVAGTFDS [GPLM_Gen].
Read-out -0.52 (6 of 6 replicates), from GFDLDEYGIS / VIYADGQRTFYADSVK / GTNAGTFDA [En_HC].
Read-out 1.87 (5 of 6 replicates), from KFDLNSYGIS / VIYSDGRRTFYGDSVK / GITAGTFDS [GP_Gibbs].
Read-out -0.74 (6 of 6 replicates), from GFDLNEYGIS / VIYADGMRTAYSNSVK / GEVAGTFDV [En_Gen].
Read-out 1.39 (1 of 6 replicates), from GDTLLSYGIS / VIYSDGRRTFYGDQVK / GRAAGTFDS [Ctrl].
Read-out -0.88 (6 of 6 replicates), from GFDLDEYGIS / VIYADGKRTFYADSVK / GENAGTFDI [En_Gen].
Read-out nd (0 of 6 replicates), from GFKLNEYGIS / VIYADGQRVAYTDSFK / GTQAGMFFE [En_Gibbs].
Read-out 1.01 (6 of 6 replicates), from GFTLNEYGIS / VIYSDGMRTFYGDSVK / GRQAGTFDS [GP_Gen].
Read-out -0.45 (6 of 6 replicates), from GFDLNEYGIS / VIYADGRRTFYTDNVK / GENAGTFDV [En_HC].
Read-out 0.13 (6 of 6 replicates), from GFSLNEYGIS / VIYSDGRRTFYGDSVK / GHAAGTFDL [GPLM_Gen].
Read-out nd (0 of 6 replicates), from GFTLNSYGIS / VVYADGRRTFYGDSVK / GRAAGTNSS [Rand].
Read-out nd (0 of 6 replicates), from GFTLNSYGIS / VIYSDGRRTSYIDSVK / GRAAGTADS [Ctrl].
Read-out -0.40 (6 of 6 replicates), from GFDLNEYGIS / VIYADGSRTAYADNVK / GETAGTFDV [En_Gen].
Read-out nd (0 of 6 replicates), from GFQLNEYGIS / VIYADGIRREYASKVK / GGINASFDV [En_Gibbs].

The first 5 variants above that were never detected:

For GFNLNKYGSS / VIYSDGRRTFYGDSVK / GRAMGTFDS [Ctrl], the assay gave nd (0 of 6 replicates).
For GFKLNEYGIS / VIYADGQRVAYTDSFK / GTQAGMFFE [En_Gibbs], the assay gave nd (0 of 6 replicates).
For GFTLNSYGIS / VVYADGRRTFYGDSVK / GRAAGTNSS [Rand], the assay gave nd (0 of 6 replicates).
For GFTLNSYGIS / VIYSDGRRTSYIDSVK / GRAAGTADS [Ctrl], the assay gave nd (0 of 6 replicates).
For GFQLNEYGIS / VIYADGIRREYASKVK / GGINASFDV [En_Gibbs], the assay gave nd (0 of 6 replicates).

Background: pairings of all heavy chain designs with three empty control strains gave a value in 1% of cases (median 2.08, 5th percentile 0.84). Values in that range, when seen in few replicates, are hard to tell from nonspecific mating.
In the paper, a design with two or fewer of six values counts as a poor binder.